Assay results: article PMC12207880 (The Oncologist, 2025)
Like-named read-outs stand apart in the source and are kept apart here.

Tested on: patients with advanced solid tumors

Cc1nc2c(F)cc(-c3nc(Nc4ccc5c(n4)CCN(CCN(C)C)C5)ncc3F)cc2n1C1CC1
3 (100) n (%): All TRAEs, Grade All (200 mg QD, N = 3) | Lymphocyte count decreased, Grade All (200 mg QD, N = 3)
2 (66.7) n (%): Anaemia, Grade All (200 mg QD, N = 3) | Hypoalbuminemia, Grade All (200 mg QD, N = 3)
0 n (%): Neutrophil count decreased, Grade ≥3 (100 mg QD, N = 3) | Platelet count decreased, Grade All (100 mg QD, N = 3) | Platelet count decreased, Grade ≥3 (100 mg QD, N = 3) | Rash, Grade All (100 mg QD, N = 3) | Rash, Grade ≥3 (100 mg QD, N = 3) | Vomiting, Grade All (100 mg QD, N = 3) | Vomiting, Grade ≥3 (100 mg QD, N = 3) | γ-glutamyl transpeptidase increased, Grade ≥3 (100 mg QD, N = 3) | Abdominal pain, Grade All (200 mg QD, N = 3) | Abdominal pain, Grade ≥3 (200 mg QD, N = 3) | Alanine aminotransferase increased, Grade All (200 mg QD, N = 3) | Alanine aminotransferase increased, Grade ≥3 (200 mg QD, N = 3) | Alkaline phosphatase increased, Grade All (200 mg QD, N = 3) | Alkaline phosphatase increased, Grade ≥3 (200 mg QD, N = 3) | Anaemia, Grade ≥3 (200 mg QD, N = 3) | Appetite decreased, Grade ≥3 (200 mg QD, N = 3) | Aspartate aminotransferase increased, Grade All (200 mg QD, N = 3) | Aspartate aminotransferase increased, Grade ≥3 (200 mg QD, N = 3) | Blood creatinine increased, Grade All (200 mg QD, N = 3) | Blood creatinine increased, Grade ≥3 (200 mg QD, N = 3) | Blood lactic dehydrogenase increased, Grade All (200 mg QD, N = 3) | Blood lactic dehydrogenase increased, Grade ≥3 (200 mg QD, N = 3) | Diarrhoea, Grade ≥3 (200 mg QD, N = 3) | Dizziness, Grade All (200 mg QD, N = 3) | Dizziness, Grade ≥3 (200 mg QD, N = 3) | Electrocardiogram QT prolonged, Grade ≥3 (200 mg QD, N = 3) | Fatigue, Grade All (200 mg QD, N = 3) | Fatigue, Grade ≥3 (200 mg QD, N = 3) | Haematuria, Grade All (200 mg QD, N = 3) | Haematuria, Grade ≥ 3 (200 mg QD, N = 3) | Hypoalbuminemia, Grade ≥3 (200 mg QD, N = 3) | Hypokalaemia, Grade All (200 mg QD, N = 3) | Hypokalaemia, Grade ≥3 (200 mg QD, N = 3) | Hyponatraemia, Grade ≥3 (200 mg QD, N = 3) | Leucocyte count decreased, Grade ≥3 (200 mg QD, N = 3) | Nausea, Grade ≥3 (200 mg QD, N = 3) | Neutrophil count decreased, Grade ≥3 (200 mg QD, N = 3) | Platelet count decreased, Grade All (200 mg QD, N = 3) | Platelet count decreased, Grade ≥3 (200 mg QD, N = 3) | Rash, Grade All (200 mg QD, N = 3) | Rash, Grade ≥3 (200 mg QD, N = 3) | Vomiting, Grade All (200 mg QD, N = 3) | Vomiting, Grade ≥3 (200 mg QD, N = 3) | γ-glutamyl transpeptidase increased, Grade All (200 mg QD, N = 3) | γ-glutamyl transpeptidase increased, Grade ≥3 (200 mg QD, N = 3) | Abdominal pain, Grade ≥3 (300 mg QD, N = 4) | Alanine aminotransferase increased, Grade All (300 mg QD, N = 4) | Alanine aminotransferase increased, Grade ≥3 (300 mg QD, N = 4) | Alkaline phosphatase increased, Grade All (300 mg QD, N = 4) | Alkaline phosphatase increased, Grade ≥3 (300 mg QD, N = 4) | Anaemia, Grade ≥3 (300 mg QD, N = 4) | Appetite decreased, Grade ≥3 (300 mg QD, N = 4) | Aspartate aminotransferase increased, Grade All (300 mg QD, N = 4) | Aspartate aminotransferase increased, Grade ≥3 (300 mg QD, N = 4) | Blood creatinine increased, Grade ≥3 (300 mg QD, N = 4) | Blood lactic dehydrogenase increased, Grade All (300 mg QD, N = 4) | Blood lactic dehydrogenase increased, Grade ≥3 (300 mg QD, N = 4) | Diarrhoea, Grade ≥3 (300 mg QD, N = 4) | Dizziness, Grade All (300 mg QD, N = 4) | Dizziness, Grade ≥3 (300 mg QD, N = 4) | Electrocardiogram QT prolonged, Grade All (300 mg QD, N = 4) | Electrocardiogram QT prolonged, Grade ≥3 (300 mg QD, N = 4) | Fatigue, Grade All (300 mg QD, N = 4) | Fatigue, Grade ≥3 (300 mg QD, N = 4) | Haematuria, Grade ≥ 3 (300 mg QD, N = 4) | Hypoalbuminemia, Grade ≥3 (300 mg QD, N = 4) | Hypokalaemia, Grade All (300 mg QD, N = 4) | Hypokalaemia, Grade ≥3 (300 mg QD, N = 4)
3 (75.0) n (%): Abdominal pain, Grade All (300 mg QD, N = 4) | Diarrhoea, Grade All (300 mg QD, N = 4)
1 (25.0) n (%): All TRAEs, Grade ≥3 (300 mg QD, N = 4) | Appetite decreased, Grade All (300 mg QD, N = 4) | Blood creatinine increased, Grade All (300 mg QD, N = 4) | Haematuria, Grade All (300 mg QD, N = 4) | Hypoalbuminemia, Grade All (300 mg QD, N = 4)
2 (50.0) n (%): Anaemia, Grade All (300 mg QD, N = 4)
4 (100) n (%): All TRAEs, Grade All (300 mg QD, N = 4)
1 (33.3) n (%): γ-glutamyl transpeptidase increased, Grade All (100 mg QD, N = 3) | All TRAEs, Grade ≥3 (200 mg QD, N = 3) | Appetite decreased, Grade All (200 mg QD, N = 3) | Diarrhoea, Grade All (200 mg QD, N = 3) | Electrocardiogram QT prolonged, Grade All (200 mg QD, N = 3) | Hyponatraemia, Grade All (200 mg QD, N = 3) | Leucocyte count decreased, Grade All (200 mg QD, N = 3) | Lymphocyte count decreased, Grade ≥3 (200 mg QD, N = 3) | Nausea, Grade All (200 mg QD, N = 3) | Neutrophil count decreased, Grade All (200 mg QD, N = 3)
